Laboratory results reported in ChEMBL document CHEMBL6083289, “Deciphering the Therapeutic Potential of Novel Pentyloxyamide-Based Class I, IIb HDAC Inhibitors against Therapy-Resistant Leukemia” (J Med Chem, 2024).

Molecular target: T1, Histone deacetylase 8 (Homo sapiens, UniProt Q9BY41)
T1 sequence (Q9BY41 whole entry): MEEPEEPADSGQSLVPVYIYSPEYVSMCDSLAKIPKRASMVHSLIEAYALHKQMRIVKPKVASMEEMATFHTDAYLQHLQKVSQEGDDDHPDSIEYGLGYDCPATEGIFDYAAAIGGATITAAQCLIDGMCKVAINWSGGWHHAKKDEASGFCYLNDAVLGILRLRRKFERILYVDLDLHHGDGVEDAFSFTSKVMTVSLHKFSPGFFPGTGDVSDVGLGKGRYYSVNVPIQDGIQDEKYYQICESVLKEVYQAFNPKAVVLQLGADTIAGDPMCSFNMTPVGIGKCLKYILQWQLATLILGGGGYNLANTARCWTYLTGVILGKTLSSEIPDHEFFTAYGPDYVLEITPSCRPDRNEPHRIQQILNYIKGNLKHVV

O=C(CCCCCCC(=O)Nc1ccccc1)NO [VORINOSTAT]
IC50: 5.85 µM
